{"sequences": {"note": "By UniProt entry, the sequences of proteins in these tests, tags left out. Where a name states a change or a piece, a line headed by the entry shows the natural chain unless it says otherwise.", "UniProt P11388": "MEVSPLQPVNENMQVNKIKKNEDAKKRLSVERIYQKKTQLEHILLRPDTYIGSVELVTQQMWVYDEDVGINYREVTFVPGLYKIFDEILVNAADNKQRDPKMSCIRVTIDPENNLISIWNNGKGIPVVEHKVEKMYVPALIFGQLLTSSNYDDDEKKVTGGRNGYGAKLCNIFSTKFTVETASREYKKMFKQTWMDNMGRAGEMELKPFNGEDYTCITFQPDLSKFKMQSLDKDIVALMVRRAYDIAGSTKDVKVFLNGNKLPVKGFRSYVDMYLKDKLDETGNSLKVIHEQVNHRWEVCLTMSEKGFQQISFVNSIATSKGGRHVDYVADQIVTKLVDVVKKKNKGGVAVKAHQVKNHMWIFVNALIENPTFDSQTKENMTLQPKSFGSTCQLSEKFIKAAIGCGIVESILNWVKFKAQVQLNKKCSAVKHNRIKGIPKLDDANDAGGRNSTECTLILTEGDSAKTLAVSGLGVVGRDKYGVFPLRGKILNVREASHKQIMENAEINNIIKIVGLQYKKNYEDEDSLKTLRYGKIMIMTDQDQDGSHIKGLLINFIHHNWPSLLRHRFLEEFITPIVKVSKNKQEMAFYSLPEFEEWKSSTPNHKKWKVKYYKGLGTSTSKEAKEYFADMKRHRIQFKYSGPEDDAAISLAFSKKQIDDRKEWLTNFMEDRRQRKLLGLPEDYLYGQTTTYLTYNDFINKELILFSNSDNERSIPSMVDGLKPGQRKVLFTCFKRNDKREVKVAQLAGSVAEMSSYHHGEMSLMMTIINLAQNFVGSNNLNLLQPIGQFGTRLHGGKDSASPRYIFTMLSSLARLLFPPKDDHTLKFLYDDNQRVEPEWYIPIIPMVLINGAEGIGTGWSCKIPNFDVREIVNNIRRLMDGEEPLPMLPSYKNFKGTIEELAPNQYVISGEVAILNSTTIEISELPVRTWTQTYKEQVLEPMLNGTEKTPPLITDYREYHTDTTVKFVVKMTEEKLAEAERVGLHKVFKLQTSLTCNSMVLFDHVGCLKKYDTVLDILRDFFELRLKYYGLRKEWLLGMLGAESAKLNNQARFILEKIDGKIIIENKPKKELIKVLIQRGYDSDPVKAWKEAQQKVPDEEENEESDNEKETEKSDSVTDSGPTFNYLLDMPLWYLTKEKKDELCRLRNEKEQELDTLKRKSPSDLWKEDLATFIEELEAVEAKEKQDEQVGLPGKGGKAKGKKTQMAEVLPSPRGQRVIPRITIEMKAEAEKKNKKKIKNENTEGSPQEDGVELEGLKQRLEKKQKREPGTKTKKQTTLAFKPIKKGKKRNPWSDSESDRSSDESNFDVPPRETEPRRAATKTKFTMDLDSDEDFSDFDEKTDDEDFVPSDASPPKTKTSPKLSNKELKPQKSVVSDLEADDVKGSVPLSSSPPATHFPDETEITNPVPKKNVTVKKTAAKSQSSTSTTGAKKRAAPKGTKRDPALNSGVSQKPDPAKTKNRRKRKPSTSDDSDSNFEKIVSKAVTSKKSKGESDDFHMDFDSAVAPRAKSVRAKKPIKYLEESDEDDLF"}, "source": "patent US5280119A", "about": "“Heterocyclic amine-boranes, and method of inhibiting DNA topoisomerase activity and/or combatting inflammation, hyperlipidemia, and/or neoplasia using amine-borane compounds” (dated 1994)", "key": {"[1]": {"system": "human Tmolt3 acute lymphoblastic T cell leukemia", "assay": "Cytotoxicity, Tmolt3", "settings": "trypan blue exclusion"}, "[2]": {"system": "HeLa-S^3 suspended cervical carcinoma", "assay": "Cytotoxicity, HeLa-S3", "settings": "hela-s3 cells"}, "L1210 leukemia": {"system": "L1210 leukemia", "assay": "in vivo L1210 leukemia screen", "settings": "20 mg/kg/day"}, "glioma EH 118 MG": {"system": "glioma EH 118 MG", "assay": "Cytotoxicity, glioma EH 118 MG", "settings": "eh 118 mg cells"}, "[3]": {"system": "P388 lymphocytic leukemia", "assay": "in vivo P388 lymphocytic screen", "settings": "20 mg/kg/day I.P."}, "osteosarcoma TE418": {"system": "osteosarcoma TE418", "assay": "Cytotoxicity, osteosarcoma TE418", "settings": "te418 cells"}, "[4]": {"assay": "Hypolipidemic screen in normal mice", "settings": "CF1 male mice, IP, 8 Mg/kg/day, N = 6"}, "[5]": {"system": "murine L1210 lymphoid leukemia", "assay": "Cytotoxicity, L1210 lymphoid leukemia", "settings": "trypan blue exclusion"}, "Lewis lung carcinoma": {"system": "Lewis lung carcinoma", "assay": "In vivo Lewis lung carcinoma activity", "settings": "8 mg/kg/day I.P."}, "[6]": {"system": "lung bronchogenic MB-9812", "assay": "Cytotoxicity, lung bronchogenic MB-9812", "settings": "concentration which inhibits 50% of cell growth"}, "[7]": {"system": "P388 lymphocytic leukemia", "assay": "Cytotoxicity, P388 lymphocytic leukemia"}, "[8]": {"system": "KB epidermoid nasopharynx", "assay": "Cytotoxicity, KB epidermoid nasopharynx", "settings": "kb cells"}, "[9]": {"system": "Ehrlich ascites carcinoma", "assay": "in vivo Ehrlich ascites carcinoma screen", "settings": "20 mg/kg/day I.P., CF1 male mice"}, "[10]": {"assay": "Anti-inflammatory activity, carrageenan paw", "settings": "CF1 Mice, 20 mg/kg × 2 (table head; b1373: 8 mg/kg i.p. 3 hours and 30 minutes before carrageenan)"}, "[11]": {"system": "colorectal adenocarcinoma SW480", "assay": "Cytotoxicity, colorectal adenocarcinoma SW480", "settings": "sw480 cells"}, "[12]": {"molecular_target": "DNA topoisomerase II (HeLa) (Homo sapiens, UniProt P11388)", "assay": "DNA topoisomerase II inhibition (unknotting of knotted DNA)", "settings": "one hour reaction, agarose gel"}}, "data": [{"compound": "O=C(O)[BH2-][NH+]1CCC(c2ccccc2)CC1", "note": "(stereo not shown)", "values": [{"measurement": "ED50 Cytotoxicity, Human lymphocyte Tmolt3", "setting": "[1]", "result": 2.83, "unit": "µg/mL"}, {"measurement": "ED50 Cytotoxicity, Human HeLa-S^3", "setting": "[2]", "result": 1.23, "unit": "µg/mL"}, {"measurement": "T/C%, L1210 leukemia screen in vivo", "setting": "L1210 leukemia", "result": "inactive"}, {"measurement": "ED50 Cytotoxicity, Human Glioma", "setting": "glioma EH 118 MG", "result": 2.23, "unit": "µg/mL"}, {"measurement": "T/C%, in vivo P388 lymphocytic screen", "setting": "[3]", "result": 135, "unit": "%"}, {"measurement": "ED50 Cytotoxicity, Human Osteo-Sarcoma", "setting": "osteosarcoma TE418", "result": 7.06, "unit": "µg/mL"}, {"measurement": "Serum Cholesterol Day 9", "setting": "[4]", "result": "81 ± 6% of Control"}, {"measurement": "Serum Cholesterol Day 16", "setting": "[4]", "result": "73 ± 5% of Control"}, {"measurement": "Serum Triglycerides Day 16", "setting": "[4]", "result": "86 ± 7% of Control"}, {"measurement": "ED50 Cytotoxicity, L1210 Lymphoid Leukemia", "setting": "[5]", "result": 3.56, "unit": "µg/mL"}, {"measurement": "T/C%, in vivo Lewis lung carcinoma", "setting": "Lewis lung carcinoma", "result": 141, "unit": "%"}, {"measurement": "ED50 Cytotoxicity, Human Lung Bronchogenic", "setting": "[6]", "result": 4.96, "unit": "µg/mL"}, {"measurement": "ED50 Cytotoxicity, P388 Lymphocytic Leukemia", "setting": "[7]; p388 cells", "result": 2.93, "unit": "µg/mL"}, {"measurement": "activity in the murine P388 lymphocytic screen (in words)", "setting": "[7]; text summary of Table 4", "result": "active"}, {"measurement": "ED50 Cytotoxicity, Human KB", "setting": "[8]", "result": 6.54, "unit": "µg/mL"}, {"measurement": "inhibition of growth, in vivo Ehrlich ascites carcinoma", "setting": "[9]", "result": 83, "unit": "%"}, {"measurement": "% of Control, anti-inflammatory (paw weight increase)", "setting": "[10]", "result": "80 % of Control"}, {"measurement": "ED50 Cytotoxicity, Human Colon SW480", "setting": "[11]", "result": 5.32, "unit": "µg/mL"}, {"measurement": "Inhibitory Concentration, Topoisomerase II", "setting": "[12]", "result": 100, "unit": "µM"}]}]}
